Results published in PMC2600596 (European journal of pharmacology, 2008).

Amino acid sequences for entries named in this document (tags omitted).
UniProt P35372, whole entry: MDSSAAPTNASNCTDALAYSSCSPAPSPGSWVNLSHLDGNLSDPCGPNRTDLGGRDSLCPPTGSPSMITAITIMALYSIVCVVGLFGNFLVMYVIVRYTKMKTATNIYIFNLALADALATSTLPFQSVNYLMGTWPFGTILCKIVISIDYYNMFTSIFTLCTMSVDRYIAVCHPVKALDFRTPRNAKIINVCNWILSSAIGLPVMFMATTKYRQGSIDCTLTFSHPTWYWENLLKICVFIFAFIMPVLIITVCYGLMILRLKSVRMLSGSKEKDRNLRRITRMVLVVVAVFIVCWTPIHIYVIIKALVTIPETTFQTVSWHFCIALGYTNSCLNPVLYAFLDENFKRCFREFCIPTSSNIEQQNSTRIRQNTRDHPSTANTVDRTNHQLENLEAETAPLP

Molecular target: hMOR (human mu opioid receptor) (Homo sapiens, UniProt P35372)
Test: cell-based
Format: binding

Oc1ccc2c3c1O[C@H]1c4[nH]c5ccccc5c4C[C@@]4(O)[C@@H](C2)N(CC2CC2)CC[C@]314 [Naltrindole, naltrindole]
Ki: 6.1 nM
